In the assay the target is TrkA (Homo sapiens (Human), UniProt P04629). Put plainly: TrkA activity, off-chip mobility shift assay. Conditions: 200 pM TrkA, 55 μM ATP (ATP Km), 180 minutes. It is filed as biochemical. The text has this: Reagents and consumables were purchased from Sigma Aldrich, Carna Biosciences, or Caliper Life Sciences. All assay reaction conditions for IC50 determinations were within the linear range with respect to time and enzyme concentration. […] The LabChip 3000 separates and measures the fluorescent signal of fluorescein labeled peptide substrate and fluorescein labeled peptide product present in each well. Results are expressed as percent conversion by measuring peak height for both the substrate and product and dividing the product peak height by the sum of peak heights for both substrate and product.

The chains behind the UniProt entries cited, without tags or fusion partners. Residues count along the entry.
UniProt P04629, 33-796: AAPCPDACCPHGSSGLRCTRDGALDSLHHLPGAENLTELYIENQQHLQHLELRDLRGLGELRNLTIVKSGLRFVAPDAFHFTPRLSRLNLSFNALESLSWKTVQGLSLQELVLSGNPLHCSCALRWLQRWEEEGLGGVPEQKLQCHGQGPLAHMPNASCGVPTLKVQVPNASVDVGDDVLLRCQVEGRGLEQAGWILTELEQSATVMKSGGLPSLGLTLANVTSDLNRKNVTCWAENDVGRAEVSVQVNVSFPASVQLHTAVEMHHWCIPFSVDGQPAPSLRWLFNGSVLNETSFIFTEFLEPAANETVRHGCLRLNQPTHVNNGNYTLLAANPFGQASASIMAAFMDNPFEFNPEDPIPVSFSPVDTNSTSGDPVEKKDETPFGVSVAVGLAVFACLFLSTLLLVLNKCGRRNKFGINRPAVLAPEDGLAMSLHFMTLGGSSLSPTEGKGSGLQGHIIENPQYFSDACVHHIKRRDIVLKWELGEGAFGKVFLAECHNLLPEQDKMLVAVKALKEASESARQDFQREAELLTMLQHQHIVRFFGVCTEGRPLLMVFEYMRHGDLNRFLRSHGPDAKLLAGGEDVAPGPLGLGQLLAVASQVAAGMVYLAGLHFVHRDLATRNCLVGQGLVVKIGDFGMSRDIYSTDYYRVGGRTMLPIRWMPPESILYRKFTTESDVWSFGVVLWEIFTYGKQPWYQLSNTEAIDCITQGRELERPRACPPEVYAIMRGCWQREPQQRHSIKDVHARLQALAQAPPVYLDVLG

As to `CCOc1cc(Cn2cnc3cc(N4CCN(C)CC4)cnc32)ccc1OCc1ccc(OC)nc1` [Ex. 3-28, 3-(3-Ethoxy-4-((6-methoxypyridin-3-yl)methoxy)benzyl)-6-(4-methylpiperazin-1-yl)-3H-imidazo[4,5-b]pyridine], the IC50 worked out at 337 nM.

(Values after US10166239B2, “Tropomyosin-related kinase (Trk) inhibitors” (Genzyme Corporation, priority 2013, dated 2019).)
